Laboratory results as given in US8871728B2, “Non-peptide macrocyclic histone deacetylese (HDAC) inhibitors and methods of making and using thereof” (Georgia Tech Research Corporation, priority 2007, dated 2014).

Chains of the proteins cited; added tags and fusions are not shown. Lines headed by an entry give the natural chain unless they say otherwise; changes in a name come on top.
UniProt Q9BY41: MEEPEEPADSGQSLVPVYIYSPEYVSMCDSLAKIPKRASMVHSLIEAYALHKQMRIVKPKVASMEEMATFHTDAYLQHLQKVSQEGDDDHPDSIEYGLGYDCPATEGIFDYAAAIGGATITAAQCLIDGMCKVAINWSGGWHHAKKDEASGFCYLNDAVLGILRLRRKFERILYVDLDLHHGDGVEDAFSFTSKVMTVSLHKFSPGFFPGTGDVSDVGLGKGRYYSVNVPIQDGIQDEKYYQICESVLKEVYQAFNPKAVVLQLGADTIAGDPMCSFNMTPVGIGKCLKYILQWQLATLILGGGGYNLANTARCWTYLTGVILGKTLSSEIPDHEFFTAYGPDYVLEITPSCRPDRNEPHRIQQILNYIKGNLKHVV

Target: HDAC8 (Homo sapiens (Human), UniProt Q9BY41)
Assay: SAMDI mass spectrometry HDAC inhibition assay
Assay type: biochemical
Details: Table 14; read-out: HDAC 8 (nm)

Cc1ccccc1-c1ccc(Cn2cccc(O)c2=S)cc1 [Compound 149f, 1-(2-Methyl-(1,1′-biphenylmethyl))-3-hydroxyoxypyridine-2-thione]
IC50: 3.1 ± 1.65 µM
